# US7449446B2, “Combination product comprising melagatran and dexamethasone” (AstraZeneca AB, priority 2001, dated 2008)
# Assays:
# rats given endotoxin [1] = details: 5 h after endotoxin
# rats given endotoxin [2] = assay: 125I-fibrinogen in the blood after endotoxin (experimental endotoxaemia); assay type: in vivo, Sprague-Dawley rats; details: compared to sham operated group I; group III (tranexamic acid 2 × 50 mg/kg iv), group VII (Hep low 25 U/kg + 25 U/kg/h)
# From the text: The body temperature was maintained at.
# Adjustment for multiplicity was done using Scheffe.
compound,measurement,setting,value
NC[C@H]1CC[C@H](C(=O)O)CC1 [tranexamic acid],fibrin accumulation in the lung and the kidneys,rats given endotoxin [1],no such accumulation
same,fibrin accumulation in the spleen,"rats given endotoxin [1]; compared to sham operated rats (group I), group III",significant increase
same,fibrinogen in blood 5 h after endotoxin,rats given endotoxin [2],significantly decreased
